{"source": "patent US20130203718A1", "about": "“PROGESTERONE RECEPTOR ANTAGONISTS AND USES THEREOF” (priority 2010, published 2013)", "assay_type_in_all_cases": "cell-based", "key": {"hPRB and SMRT": {"molecular_target": "T1, hPRB and SMRT (Homo sapiens, UniProt P06401)", "T1 construct": "expressed in transfected cells; host or cells: HEK 293T", "T1 sequence (P06401 1-933)": "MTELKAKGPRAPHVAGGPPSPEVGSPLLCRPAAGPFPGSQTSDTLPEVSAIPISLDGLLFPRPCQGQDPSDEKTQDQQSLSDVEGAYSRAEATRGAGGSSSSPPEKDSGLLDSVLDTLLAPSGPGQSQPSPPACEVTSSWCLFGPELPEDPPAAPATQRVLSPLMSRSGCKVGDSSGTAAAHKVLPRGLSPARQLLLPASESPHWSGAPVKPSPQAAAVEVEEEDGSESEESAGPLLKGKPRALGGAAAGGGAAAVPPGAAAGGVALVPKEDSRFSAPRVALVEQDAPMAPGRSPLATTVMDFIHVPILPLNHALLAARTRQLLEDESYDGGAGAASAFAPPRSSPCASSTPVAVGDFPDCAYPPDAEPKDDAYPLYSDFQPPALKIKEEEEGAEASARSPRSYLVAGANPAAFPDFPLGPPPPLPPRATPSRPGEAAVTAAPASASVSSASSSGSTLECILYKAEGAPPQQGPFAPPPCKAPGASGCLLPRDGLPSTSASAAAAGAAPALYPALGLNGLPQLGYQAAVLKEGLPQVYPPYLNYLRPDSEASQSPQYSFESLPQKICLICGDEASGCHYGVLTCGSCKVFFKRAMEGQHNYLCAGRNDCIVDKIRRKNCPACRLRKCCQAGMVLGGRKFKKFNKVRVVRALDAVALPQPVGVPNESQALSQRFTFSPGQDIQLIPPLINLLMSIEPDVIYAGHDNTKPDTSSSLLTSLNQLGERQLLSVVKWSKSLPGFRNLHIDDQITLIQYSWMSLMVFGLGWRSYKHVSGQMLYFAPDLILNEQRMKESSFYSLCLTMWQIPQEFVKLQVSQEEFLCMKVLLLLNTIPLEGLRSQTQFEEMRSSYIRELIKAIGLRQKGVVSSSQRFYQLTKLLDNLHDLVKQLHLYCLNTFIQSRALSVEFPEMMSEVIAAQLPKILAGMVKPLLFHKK", "experiment": "Mammalian two hybrid assay, recruitment of co-repressor SMRT by hPRB", "settings": "HEK293T, FIGS. 13 and 14", "method": "(§1) Mammalian Two Hybrid Assays.\n(§2) To investigate whether hPR was able to recruit transcriptional corepressors upon APRn binding, two hybrid assays have been performed in HEK 293T cells. Cell transfection were carried out according to the protocol used for the PR transactivation assays, with 1 μg of pGAL4-SMRT or pGAL4-NcoR, 2.5 μg of the PR expression vector pV16-PR and 5 μg of the reporter pG5-luc. The plasmid pGAL4-SMRT and pGAL4-NcoR, provided by P. Balaguer, encode the fusion protein between the GAL4 DNA-binding domain (GAL4DBD) and the receptor interacting domain (RID) of the corepressor […], respectively. The expression vector pV16PR encodes the VP16 activation domain of herpes simplex virus fused to the entire hPR and pG5-luc, provided by P. Fuller, encodes the luciferase gene driven by a GAL4-responsive promoter. […] Cells were lysed and the luciferase and activities were quantified by using a Mithras reader microplates (Berthold).\n(§3) Both agonist- and antagonist-bound PR regulate gene transcription with the assistance of transcriptional co-repressors (NCoR, SMRT) or co-activators (namely, TIF-2). To characterize the mechanism by which APRn inactivate hPRB, the capacity of hPRB to recruit transcriptional co-regulators upon APRn binding has been evaluated. […]"}, "hPRB and TIF-2": {"molecular_target": "T2, hPRB and TIF-2 (Homo sapiens, UniProt P06401)", "T2 construct": "expressed in transfected cells; host or cells: HEK 293T", "T2 sequence (P06401 1-933)": "T1 sequence (P06401 1-933)", "experiment": "Mammalian two hybrid assay, recruitment of co-activator TIF-2 (TIF-2-Nter, TIF-2-NterRID) by hPRB", "settings": "TIF-2-Nter and TIF-2-NterRID, HEK293T, FIGS. 15-17", "method": "as §1, §2, §3"}, "hPRB and NCoR": {"molecular_target": "T3, hPRB and NCoR (Homo sapiens, UniProt P06401)", "T3 construct": "expressed in transfected cells; host or cells: HEK 293T", "T3 sequence (P06401 1-933)": "T1 sequence (P06401 1-933)", "experiment": "Mammalian two hybrid assay, recruitment of co-repressor NCoR by hPRB", "settings": "HEK293T, FIGS. 12 and 14", "method": "as §1, §2, §3"}}, "note": "“Also recorded” adds a separate entry of the source.", "data": [{"smiles": "CC(=O)[C@H]1CC[C@H]2[C@@H]3CCC4=CC(=O)CC[C@]4(C)[C@H]3CC[C@]12C", "note": "[progesterone]", "values": [{"measurement": "recruitment of co-repressor SMRT by hPRB upon ligand binding", "setting": "hPRB and SMRT", "value": "not SMRT"}, {"measurement": "recruitment of co-activator TIF-2 sequences by hPRB upon ligand binding", "setting": "hPRB and TIF-2", "value": "promoted a dose-dependent binding of both TIF-2 sequences"}]}, {"smiles": "CC#C[C@]1(O)CC[C@H]2[C@@H]3CCC4=CC(=O)CCC4=C3[C@@H](c3ccc(N(C)C)cc3)C[C@@]21C", "note": "[RU486, mifepristone, reference compound]", "values": [{"measurement": "recruitment of co-repressor NCoR by hPRB upon ligand binding", "setting": "hPRB and NCoR", "value": "promoted a dose-dependent binding"}, {"measurement": "recruitment of co-repressor SMRT by hPRB upon ligand binding", "setting": "hPRB and SMRT", "value": "promoted a dose-dependent binding"}, {"measurement": "recruitment of co-activator TIF-2 sequences by hPRB upon ligand binding", "setting": "hPRB and TIF-2", "value": "promoted a dose-dependent binding of both TIF-2 sequences; also recorded: lower upon RU486 compared to progesterone"}]}]}
